Target: oestrone sulphatase (Homo sapiens, UniProt P08842)
Conditions: concentration tested 20 mM (so in the source)

Chains of the proteins cited; added tags and fusions are not shown. Residues count along the entry.
UniProt P08842, 22-583: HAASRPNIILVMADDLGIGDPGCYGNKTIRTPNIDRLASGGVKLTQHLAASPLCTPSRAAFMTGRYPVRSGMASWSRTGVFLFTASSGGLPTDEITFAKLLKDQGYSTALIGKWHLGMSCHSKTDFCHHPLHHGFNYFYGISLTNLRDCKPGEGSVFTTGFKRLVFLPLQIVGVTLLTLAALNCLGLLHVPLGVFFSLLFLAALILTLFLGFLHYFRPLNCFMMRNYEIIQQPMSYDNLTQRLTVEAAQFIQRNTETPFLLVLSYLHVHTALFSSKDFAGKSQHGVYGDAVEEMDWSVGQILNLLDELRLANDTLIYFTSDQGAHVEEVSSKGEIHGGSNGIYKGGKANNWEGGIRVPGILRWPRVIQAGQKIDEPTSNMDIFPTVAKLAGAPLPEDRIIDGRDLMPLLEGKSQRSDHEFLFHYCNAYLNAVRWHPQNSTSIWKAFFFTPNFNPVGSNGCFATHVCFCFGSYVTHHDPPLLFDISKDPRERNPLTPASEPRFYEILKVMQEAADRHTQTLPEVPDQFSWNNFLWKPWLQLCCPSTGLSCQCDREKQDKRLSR

## C[C@]12CC[C@@H]3c4ccc(OS(N)(=O)=O)c([N+](=O)[O-])c4CC[C@H]3[C@@H]1CCC2=O
  % Inhibition (Mean) Placental Microsomes: 99.0%

Source: patent US7098199B2 (Sterix Limited, priority 1991, dated 2006)
